The conditions of the series: given as the reason for not testing.

Take “2,4,6 triisopropylbenzensulfonyl-Arg (D-Pipecolic acid)-(12-aminododecanoicacid)-4-aminobutyric acid)-Asp-Phe-Glu-Pro-Ile-Pro-Tyr-OH [BCH-2444]”: the solubility remark result is listed as “insolubility”. As for “tert-butylbezenesulfonyl-Arg (D-Pipecolic acid)-(12-aminododecanoic acid)-4-aminobutyric acid)-Asp-Phe-Glu-Pro-Ile-Pro-Tyr-OH [BCH-2741]”, the entry is “insolubility”.

Source of the values: patent US6127337A, “Bivalent thrombin inhibitors” (National Research Council of Canada, priority 1993, dated 2000).
